Assays:
[1] = target: 5-hydroxytryptamine receptor 1A (Homo sapiens, UniProt P08908); test: Displacement of [3H]8-OH-DPAT from human recombinant 5HT1A receptor incubated for […] by microbeta scintillation counting method
[2] = target: 5-hydroxytryptamine receptor 2A (Homo sapiens, UniProt P28223); test: Displacement of [3H]Ketanserin from human recombinant 5HT2A receptor incubated for […] by microbeta scintillation counting method
Also: test concentration or dose not given here.

By UniProt entry, the sequences of proteins in these tests, tags left out.
UniProt P08908, whole entry: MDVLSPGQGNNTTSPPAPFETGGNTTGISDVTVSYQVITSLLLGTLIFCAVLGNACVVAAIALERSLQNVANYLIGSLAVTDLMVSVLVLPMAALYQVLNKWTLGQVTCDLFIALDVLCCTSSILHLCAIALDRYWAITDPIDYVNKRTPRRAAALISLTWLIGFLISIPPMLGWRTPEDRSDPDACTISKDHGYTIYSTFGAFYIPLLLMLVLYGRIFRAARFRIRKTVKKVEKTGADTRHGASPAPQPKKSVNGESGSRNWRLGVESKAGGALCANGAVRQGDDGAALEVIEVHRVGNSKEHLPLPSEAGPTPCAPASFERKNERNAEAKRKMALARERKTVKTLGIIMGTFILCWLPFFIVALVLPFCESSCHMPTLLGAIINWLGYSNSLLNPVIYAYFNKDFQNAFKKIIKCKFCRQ
UniProt P28223, whole entry: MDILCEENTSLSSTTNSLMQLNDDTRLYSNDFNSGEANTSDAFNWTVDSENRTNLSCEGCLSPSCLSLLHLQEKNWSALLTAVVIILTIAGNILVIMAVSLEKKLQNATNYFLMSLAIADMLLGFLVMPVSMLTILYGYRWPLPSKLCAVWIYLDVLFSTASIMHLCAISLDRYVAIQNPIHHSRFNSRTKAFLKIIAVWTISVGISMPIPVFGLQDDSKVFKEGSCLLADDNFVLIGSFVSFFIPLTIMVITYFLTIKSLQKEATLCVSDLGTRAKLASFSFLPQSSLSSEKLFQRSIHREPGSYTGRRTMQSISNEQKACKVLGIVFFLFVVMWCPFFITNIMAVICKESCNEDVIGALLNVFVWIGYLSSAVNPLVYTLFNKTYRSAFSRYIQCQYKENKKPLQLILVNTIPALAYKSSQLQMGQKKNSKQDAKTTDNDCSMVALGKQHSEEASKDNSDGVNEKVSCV

For `O=c1[nH]c2cc(Cl)ccc2n1C1CCN(CCCCc2c[nH]c3ccccc23)CC1`, the inhibition [1] was less than 50% and the inhibition [2] was less than 50%.

From ChEMBL document CHEMBL3817845, “Development of CNS multi-receptor ligands: Modification of known D2 pharmacophores” (Bioorg Med Chem, 2016)
